Legend:
OATP2B1, P-gp, and BCRP = details: cited from earlier work
OATP2B1 = OATP2B1 (Homo sapiens, UniProt O94956); assay: Uptake transporter assay, 3H-estrone sulfate uptake in HEK-293-OATP2B1 cells; details: antioxidant 200 µM, uptake with DMSO set as 100%, mean ± SD, three replicates

By UniProt entry, the sequences of proteins in these tests, tags left out. Where a name states a change or a piece, a line headed by the entry shows the natural chain unless it says otherwise.
UniProt O94956: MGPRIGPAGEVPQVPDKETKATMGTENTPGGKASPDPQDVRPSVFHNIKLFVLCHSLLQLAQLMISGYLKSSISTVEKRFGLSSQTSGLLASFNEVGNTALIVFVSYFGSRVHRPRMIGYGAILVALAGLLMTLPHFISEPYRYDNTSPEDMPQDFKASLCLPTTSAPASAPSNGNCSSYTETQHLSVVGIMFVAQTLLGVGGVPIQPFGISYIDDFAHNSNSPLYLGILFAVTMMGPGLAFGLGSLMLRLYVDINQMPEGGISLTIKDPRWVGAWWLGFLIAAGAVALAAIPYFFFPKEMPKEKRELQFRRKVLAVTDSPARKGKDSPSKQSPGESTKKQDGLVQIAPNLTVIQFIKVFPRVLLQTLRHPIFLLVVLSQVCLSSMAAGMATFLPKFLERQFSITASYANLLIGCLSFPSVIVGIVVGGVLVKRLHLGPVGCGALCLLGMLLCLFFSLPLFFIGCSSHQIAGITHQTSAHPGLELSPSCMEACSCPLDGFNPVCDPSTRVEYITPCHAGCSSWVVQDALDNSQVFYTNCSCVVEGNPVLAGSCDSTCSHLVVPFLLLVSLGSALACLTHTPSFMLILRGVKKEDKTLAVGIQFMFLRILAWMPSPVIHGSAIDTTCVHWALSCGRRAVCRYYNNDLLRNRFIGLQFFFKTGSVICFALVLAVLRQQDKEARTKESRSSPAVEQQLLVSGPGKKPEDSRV

| SMILES | Inhibition of intestinal transporters, previous assessment (OATP2B1, P-gp, and BCRP) | % Uptake of 3H-ES OATP2B1 (OATP2B1) |
| --- | --- | --- |
| Cc1cc(C(C)(C)C)c(O)c(C(C)(C)C)c1 [Butylated hydroxytoluene (BH), Butylated hydroxytoluene] | found not to inhibit these transporters | – |
| Cl.N[C@@H](CS)C(=O)O [Cysteine hydrochloride] | – | 106.5 ± 14.8% |
